This is a selection: effects in other tests are not listed, and their absence says nothing.
What was measured:
BT-474 = experiment: Antiproliferative activity against human BT474 cells by MTS assay; type: functional, cell-based
MCF7 = experiment: Antiproliferative activity against human MCF7 cells by MTS assay; type: functional, cell-based

COc1ccc(I)c(Cc2nc3c(N)ncnc3n2CCNCC(C)(C)C)c1
IC50 (BT-474): 100 nM
IC50 (MCF7): 500 nM
